Apparent affinities of Ab-14 variants for a coronavirus HR2 peptide

Target peptide (SARS-CoV-2 spike, HR2 region): PDVDLGDISGINAS

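This is the validation round: designs drawn from the data on random variants, tested in the same kind of assay. Their group label is 14L_En_Gen (En: ensemble of fine-tuned language models; Gen: genetic algorithm). Affinity was read by AlphaSeq, a pooled yeast mating assay with surface-displayed partners. After mating in shaken culture at 30 °C for 16 h, diploids were selected and their barcode pairs sequenced. Each replicate has its own calibration line, from reference interactions of the BCL2 family. There are six technical replicates.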

Each scFv is VH, a (GGGGS)3 linker, VL, as in the parent Ab-14, and differs from it in the CDRs of the light chain only.
VH: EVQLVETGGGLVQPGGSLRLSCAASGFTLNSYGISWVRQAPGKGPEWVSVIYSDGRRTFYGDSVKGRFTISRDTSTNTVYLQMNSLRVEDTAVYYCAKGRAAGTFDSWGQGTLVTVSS
VL: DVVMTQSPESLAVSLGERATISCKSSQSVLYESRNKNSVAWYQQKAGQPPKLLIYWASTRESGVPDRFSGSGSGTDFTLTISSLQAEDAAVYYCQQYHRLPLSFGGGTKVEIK

Variants are written as CDR1, CDR2 and CDR3 of the light chain (limits as in the source). Parent: KSSQSVLYESRNKNSVA, WASTRES, QQYHRLPLS.
Numbers give log10(Kd / nM), so 0 is 1 nM and 3 is 1 µM. Smaller is tighter.
The mean shown is taken over the replicates in which the pair was detected.
"nd" marks a missing value. The strain was present, yet no cells mated with the target were sequenced in that replicate, which points to weak or no binding.
Nonspecific signal, from three strains lacking the peptide, appeared in 4% of pairings of all light chain designs, centred on 2.64 (5% of these signals below 1.59); values are not corrected for it. For each scFv, signals with the empty controls are counted beside the result, with their mean in brackets.

{"CDR-L1": "KLSMVTGHMSMAKNNVA", "CDR-L2": "EMVTREK", "CDR-L3": "QQYNRLPLA", "replicates, log10 nM": "-0.24 -0.42 -0.59 -0.35 -0.47 -0.08", "log10 Kd (nM), mean": "-0.36", "control signals": "0/18"}
{"CDR-L1": "MISQLYNMGQFAINSVA", "CDR-L2": "QAEIRNA", "CDR-L3": "QQYDRLPLA", "replicates, log10 nM": "nd nd nd 2.65 1.81 3.57", "log10 Kd (nM), mean": "2.67", "control signals": "0/18"}
{"CDR-L1": "MIGEMLMQGAYKKNSVA", "CDR-L2": "QANLRAE", "CDR-L3": "QHYNRLPLE", "replicates, log10 nM": "0.96 0.63 0.73 0.74 0.66 0.94", "log10 Kd (nM), mean": "0.78", "control signals": "2/18 (3.18)"}
{"CDR-L1": "MISQLWNMGQFAINSVA", "CDR-L2": "QAQIRNQ", "CDR-L3": "QQYDRLPLA", "replicates, log10 nM": "1.88 1.58 1.30 nd 1.89 2.07", "log10 Kd (nM), mean": "1.74", "control signals": "1/18 (2.96)"}
{"CDR-L1": "KISMLLNMTFEASNNVA", "CDR-L2": "EMVTREK", "CDR-L3": "QQYNRLPLS", "replicates, log10 nM": "1.84 1.88 1.58 2.29 1.58 1.58", "log10 Kd (nM), mean": "1.79", "control signals": "0/18"}
{"CDR-L1": "MISQVTGLGQRQRNNVA", "CDR-L2": "QTSTREP", "CDR-L3": "QQYDRLPLI", "replicates, log10 nM": "nd nd nd nd nd nd", "log10 Kd (nM), mean": "nd", "control signals": "0/18"}
{"CDR-L1": "TIGGTLMYGVMNRSNVA", "CDR-L2": "EVSERLN", "CDR-L3": "QQYDRLPLI", "replicates, log10 nM": "0.70 0.66 0.49 0.97 0.39 0.47", "log10 Kd (nM), mean": "0.61", "control signals": "1/18 (1.60)"}
{"CDR-L1": "TIGQTLMIGTRNRSNVA", "CDR-L2": "EVSQRLN", "CDR-L3": "QQYDRLPLM", "replicates, log10 nM": "0.90 1.05 1.06 0.40 0.74 0.86", "log10 Kd (nM), mean": "0.83", "control signals": "0/18"}
{"CDR-L1": "IVSQLMLWGLHYKNSIA", "CDR-L2": "EAVTRLN", "CDR-L3": "QQYDRLPLF", "replicates, log10 nM": "nd nd nd nd nd nd", "log10 Kd (nM), mean": "nd", "control signals": "0/18"}
{"CDR-L1": "QIGMLLNFESQKINNVA", "CDR-L2": "QMETRVN", "CDR-L3": "QQYDRLPLS", "replicates, log10 nM": "0.53 0.94 0.36 0.40 0.51 0.87", "log10 Kd (nM), mean": "0.60", "control signals": "0/18"}
{"CDR-L1": "KISQMVKVGATHSNSIA", "CDR-L2": "EEQTRAK", "CDR-L3": "QQYHRLPLS", "replicates, log10 nM": "0.71 0.66 0.96 0.87 0.51 0.74", "log10 Kd (nM), mean": "0.74", "control signals": "0/18"}
{"CDR-L1": "TISGMTNQAMSSHNSVA", "CDR-L2": "NVTMRPQ", "CDR-L3": "QQYHRLPLS", "replicates, log10 nM": "0.38 0.17 0.39 0.59 0.61 1.01", "log10 Kd (nM), mean": "0.53", "control signals": "1/18 (2.13)"}
{"CDR-L1": "KISQMVRVGSTLSNSIA", "CDR-L2": "EEQTRAK", "CDR-L3": "QQYHRLPLS", "replicates, log10 nM": "0.74 1.53 nd 0.00 nd 1.30", "log10 Kd (nM), mean": "0.89", "control signals": "0/18"}
{"CDR-L1": "HMSAITLGGMRQRNSVA", "CDR-L2": "QMTTREN", "CDR-L3": "QQYDHLPLS", "replicates, log10 nM": "0.17 -0.01 1.30 -0.03 -0.12 0.59", "log10 Kd (nM), mean": "0.32", "control signals": "0/18"}
{"CDR-L1": "MMSQVTGMGSRQRNNVA", "CDR-L2": "QTSQREP", "CDR-L3": "QQYDRLPLI", "replicates, log10 nM": "0.57 1.22 0.74 0.69 0.49 0.89", "log10 Kd (nM), mean": "0.77", "control signals": "2/18 (2.51)"}
{"CDR-L1": "MLSQMWGLGSKVKNSVA", "CDR-L2": "QASMRFN", "CDR-L3": "QQYDRLPLI", "replicates, log10 nM": "nd 2.51 1.10 0.73 0.89 2.08", "log10 Kd (nM), mean": "1.46", "control signals": "1/18 (0.61)"}
{"CDR-L1": "HITMGMYVHGRHHSSIA", "CDR-L2": "QAETREK", "CDR-L3": "QQYDRLPLI", "replicates, log10 nM": "nd 2.05 2.21 2.37 1.72 2.28", "log10 Kd (nM), mean": "2.13", "control signals": "0/18"}
{"CDR-L1": "TISGVMQQMTHSKNNVA", "CDR-L2": "EVSTRLD", "CDR-L3": "QQYFRLPLE", "replicates, log10 nM": "0.27 0.44 0.67 0.43 0.76 0.48", "log10 Kd (nM), mean": "0.51", "control signals": "0/18"}
{"CDR-L1": "KVSEFMKGLMMRTDSIA", "CDR-L2": "DNTTRGS", "CDR-L3": "QQYDRLPLS", "replicates, log10 nM": "nd nd nd nd nd nd", "log10 Kd (nM), mean": "nd", "control signals": "1/18 (2.51)"}

The opening 2 entries, copied out:

{"CDR-L1": "KLSMVTGHMSMAKNNVA", "CDR-L2": "EMVTREK", "CDR-L3": "QQYNRLPLA", "replicates, log10 nM": "-0.24 -0.42 -0.59 -0.35 -0.47 -0.08", "log10 Kd (nM), mean": "-0.36", "control signals": "0/18"}
{"CDR-L1": "MISQLYNMGQFAINSVA", "CDR-L2": "QAEIRNA", "CDR-L3": "QQYDRLPLA", "replicates, log10 nM": "nd nd nd 2.65 1.81 3.57", "log10 Kd (nM), mean": "2.67", "control signals": "0/18"}

The parent sequence was in this pool as ten entries: three were never detected, three once, and four in most replicates, with averages from 0.34 to 2.37.
Values of this round are not directly comparable with the first-round values of the same sequences.
In the paper, a design with two or fewer of six values counts as a poor binder.

Data: MIT Lincoln Laboratory AlphaSeq set, Li et al. 2023, doi:10.1038/s41467-023-39022-2, as distributed in FLAb.